The target of the assay is T1, elastase from human neutrophil (Homo sapiens, UniProt P08246).
T1 construct: elastase from human neutrophil; from tissue; host or cells: human neutrophil
T1 sequence (P08246 30-247 limits assumed): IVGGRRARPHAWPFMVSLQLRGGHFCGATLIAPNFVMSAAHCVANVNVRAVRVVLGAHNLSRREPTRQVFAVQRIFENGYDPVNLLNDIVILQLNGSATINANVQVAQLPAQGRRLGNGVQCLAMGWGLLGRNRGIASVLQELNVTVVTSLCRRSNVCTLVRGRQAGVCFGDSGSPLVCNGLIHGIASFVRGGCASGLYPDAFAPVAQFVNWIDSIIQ
The assay can be described thus: Inhibitory effect on elastase (spectrophotometric, Suc-Ala-Pro-Ala-pNA substrate). It counts as biochemical. The note with it: 1 mM Suc-Ala-Pro-Ala-pNA, tris-hydrochloric acid pH 8.0, 37° C. for 30 minutes, absorbance 405 nm. The procedure: The reaction mixture consisted of 1 mM Suc-Ala-Pro-Ala-pNA (dissolving in N-methylpyrrolidone to the concentration of 100 mM, and then adding 1/100 amount of the solution to the reaction mixture.), 0.1 M buffer solution of tris-hydrochloric acid (pH 8.0), 0.2 M sodium chloride aqueous solution, the sample solution of various concentrations and enzyme solution in a final volume of 1.0 ml was incubated at 37° C. for 30 minutes.
Inhibition percentage of the test compounds was calculated by the following equation: [formula]

Our source for the IC50 values is patent US5403850A, “Derivatives of P-substituted phenyl ester of pivalic acid” (Ono Pharmaceutical Co., Ltd., priority 1988, dated 1995).

Usually IC50 stands for the concentration at which inhibition is half-maximal. A high value points to lower potency. `CC(C)(C)C(=O)Oc1ccc(S(=O)(=O)Nc2ccccc2C(=O)NCC(=O)O)cc1` [2(63), N-[o-(p-pivaloyloxybenzene)sulfonylaminobenzoyl]glycine] yielded an IC50 of 44 nM. In other words, the double-digit nanomolar range.
